# Experimental data: patent USRE43802E1, “α- and β-amino acid hydroxyethylamino sulfonamides useful as retroviral protease inhibitors” (G.D. Searle LLC, priority 1992, dated 2012)
# Biological target: T1, HIV protease (Human immunodeficiency virus type 1 group M subtype B, UniProt P04585)
# T1 construct: HIV protease is diluted in the assay buffer to a final enzyme concentration of 12.3 nanomolar, based on a molecular weight of 10,780
# Test: HIV protease enzyme assay (fluorescence, substrate 2-Ile-Nle-Phe(p-NO2)-Gln-ArgNH2)
# Format: biochemical
# Conditions: Table 21
# Experimental: The enzyme method is described below. […] The positive control is MVT-101 (Miller, M. et al, Science, 246, 1149 (1989)] The assay conditions are as follows:
# Assay buffer: 20 mM sodium phosphate, pH 6.4 20% glycerol 1 mM EDTA 1 mM DTT 0.1% CHAPS
# The above described substrate is dissolved in DMSO, then diluted 10 fold in assay buffer. Final substrate concentration in the assay is 80 μM.
# The final concentration of DMSO is 14% and the final concentration of glycerol is 18%. The test compound is dissolved in DMSO and diluted in DMSO to 10× the test concentration; 10 μl of the enzyme preparation is added, the materials mixed and then the mixture is incubated at ambient temperature for 15 minutes. The enzyme reaction is initiated by the addition of 40 μl of substrate. The increase in fluorescence is monitored at 4 time points (0, 8, 16 and 24 minutes) at ambient temperature. Each assay is carried out in duplicate wells.
compound,measurement,value
CCC(C)[C@H](NC(=O)CNC)C(=O)N[C@@H](Cc1ccccc1)[C@H](O)CN(CCC(C)C)S(=O)(=O)c1ccccc1 (stereo partly shown) [Example 15],IC50,5 nM
